Columns and labels:
[1] = target: hO3 Receptor (Homo sapiens); assay: biochemical; settings: Ki (nM) ± S.D
hD3 (Homo sapiens) = assay: Affinity and intrinsic activity, Table 4; format: binding; settings: high affinity agonist state, [3H]-agonist ligand

Ki [1] | Ki (hD3 (Homo sapiens)) | SMILES
66.4 ± 12.5 nM | – | CCCN1CCCC(c2cccc(O)c2)C1 (single isomer, unassigned; (+)) [(+)-3-PPP]
30.9 ± 13.4 nM | 30.9 nM | CCCN1CCCC(c2cccc(O)c2)C1 (single isomer, unassigned; (-)) [(−)-3-PPP, (−)3-(3-hydroxyphenyl)-N-n-propylpiperidine]

— patent US20010056101A1 (priority 1998, published 2001)
